Assay results: ChEMBL document CHEMBL1140434, “1,2,4-Triazolo[1,5-a]quinoxaline as a versatile tool for the design of selective human A3 adenosine receptor antagonists: synthesis, biological evaluation, and molecular modeling studies of 2-(hetero)aryl- and 2-carboxy-substituted derivatives” (J Med Chem, 2005)

Sequences of proteins named here, by UniProt entry; tags and fusion partners are left off.
UniProt P30542, whole entry, looked up: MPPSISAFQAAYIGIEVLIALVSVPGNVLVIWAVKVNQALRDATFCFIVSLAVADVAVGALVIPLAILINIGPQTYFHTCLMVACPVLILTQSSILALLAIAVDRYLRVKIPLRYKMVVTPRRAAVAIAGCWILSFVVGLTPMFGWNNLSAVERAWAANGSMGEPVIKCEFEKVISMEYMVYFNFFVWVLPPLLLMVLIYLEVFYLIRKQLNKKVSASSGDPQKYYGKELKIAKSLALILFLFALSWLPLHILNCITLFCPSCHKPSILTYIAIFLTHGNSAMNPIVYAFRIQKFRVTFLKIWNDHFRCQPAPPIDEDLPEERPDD
UniProt P0DMS8, whole entry, looked up: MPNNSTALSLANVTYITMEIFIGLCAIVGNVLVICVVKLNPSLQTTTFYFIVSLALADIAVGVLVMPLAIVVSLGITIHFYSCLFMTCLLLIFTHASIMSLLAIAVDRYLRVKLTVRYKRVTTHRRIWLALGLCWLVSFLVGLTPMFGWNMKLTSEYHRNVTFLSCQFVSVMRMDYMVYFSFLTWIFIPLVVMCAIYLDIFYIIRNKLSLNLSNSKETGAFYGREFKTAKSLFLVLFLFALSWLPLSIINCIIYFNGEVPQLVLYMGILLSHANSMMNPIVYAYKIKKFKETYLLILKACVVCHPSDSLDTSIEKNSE

How the values were obtained:
[1] = test system: Adenosine receptor A2a (Bos taurus); assay: Percentage inhibition of [3H]CGS 21680 binding to adenosine A2A receptor in bovine striatal membranes at 20 uM; conditions: Striatum, Membrane
[2] = molecular target: Adenosine receptors; A1 & A3 (Homo sapiens) (UniProt P30542+P0DMS8); assay: Selectivity for human adenosine A3 receptor over human adenosine A1 receptor; assay type: protein assay
[3] = test system: Adenosine receptor A2a (Bos taurus); assay: Percentage inhibition of [3H]CGS 21680 binding to adenosine A2A receptor in bovine striatal membranes at 34 uM; conditions: Striatum, Membrane
[4] = Selectivity for human adenosine A3 receptor over human adenosine A2A receptor

| inhibition [1] [%] | Ratio Ki [2] | inhibition [3] [%] | Ratio Ki [4] | Compound |
| --- | --- | --- | --- | --- |
| 9.2 | – | – | – | CCOC(=O)c1nc2c(=O)n(C)c3ccccc3n2n1 |
| – | – | 54.2 | – | Oc1nc2ccc(Cl)cc2n2nc(-c3ccsc3)nc12 |
| 8.8 | – | – | – | CCOC(=O)c1nc2c(O)nc3ccc(NC(C)=O)cc3n2n1 |

The next lines start with the molecule.

| Compound | inhibition [1] [%] | Ratio Ki [2] | inhibition [3] [%] | Ratio Ki [4] |
| --- | --- | --- | --- | --- |
| Oc1nc2ccc(Cl)cc2n2nc(-c3ccccc3)nc12 | 0 | – | – | – |
| COc1ccc(-c2nc3c(O)nc4ccc(Cl)cc4n3n2)cc1 | – | 0.13 | 12.1 | – |
| Cc1ccc2c(c1)n1nc(-c3ccccc3)nc1c(=O)n2C | 11.5 | – | – | – |
| COc1ccc(-c2nc3c(N)nc4ccc(Cl)cc4n3n2)cc1 | 53.4 | 12.4 | – | > 3400 |
